Experimental data taken from patent US5726302A, “Water soluble adenosine kinase inhibitors” (Gensia Inc., priority 1995, dated 1998).

Sequences of proteins named here, by UniProt entry; tags and fusion partners are left off. Residues count along the entry.
UniProt A0A5G2R0F5, 1-362: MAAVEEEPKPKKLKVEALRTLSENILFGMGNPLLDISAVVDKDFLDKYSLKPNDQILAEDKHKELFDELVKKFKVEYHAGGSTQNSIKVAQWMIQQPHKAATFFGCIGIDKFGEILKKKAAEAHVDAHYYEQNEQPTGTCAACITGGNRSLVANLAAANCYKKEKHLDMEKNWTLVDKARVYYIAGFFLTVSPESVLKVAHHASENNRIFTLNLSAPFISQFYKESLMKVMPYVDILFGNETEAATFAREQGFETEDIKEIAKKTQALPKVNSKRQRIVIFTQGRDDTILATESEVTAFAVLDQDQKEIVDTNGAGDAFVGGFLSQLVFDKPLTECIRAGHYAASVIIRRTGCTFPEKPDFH

Biological target: partially purified pig heart adenosine kinase (Sus scrofa, UniProt A0A5G2R0F5)
Assay: biochemical
Details: 0.5 μM adenosine, pH 7.0, 20 minutes at 37° C, read-out: AK Inhibition (IC50)
Experimental: Adenosine kinase activity was measured essentially as described by Yamada et al Biochim. Biophys. Acta 660, 36-43 (1988) with a few minor modifications. Assay mixtures contained 50 mM TRIS-maleate buffer, pH 7.0, 0.1% BSA, 1 mM ATP 1 mM MgCl2, 0.5 μM [U-^14 C] adenosine (400-600 mCi/mmol) and varying duplicate concentrations of inhibitor. The reactions were initiated by addition of approximately 0.1 μU partially purified pig heart adenosine kinase, where one unit is defined as that amount of enzyme required to phosphorylate 1 μmol adenosine per minute. The reactions were incubated for 20 minutes at 37° C. The assay was quenched upon spotting 30 μL aliquots onto 2 cm^2 pieces of Whatman DE81 anion exchange paper. The paper squares were washed for 3 minutes in 6 L distilled/deionized water to remove the unreacted adenosine. […] The amount of ^14 C-AMP was quantified by scintillation counting.

## C[C@H]1O[C@@H](n2cc(I)c3c(NCc4ccncc4)ncnc32)[C@H](O)[C@@H]1O [Compound 42, 4-N-(4-pyridylmethylamino)-5-iodo-7-(5-deoxy-1-β-D-ribofuranosyl)pyrrolo[2,3-d]pyrimidine]
  IC50: 0.075 µM
